Experimental data from US20230346784A1 (priority 2020, published 2023).
Entries after “also recorded” stand apart in the source; their conditions may differ.

Key:
Format in all cases: cell-based, human
[1] = tested on: C5b-9 deposition on TF1PIGAnull cells
[2] = tested on: TF1PIGAnull cells
[3] = tested on: C3c deposition on TF1PIGAnull cells

B1: eculizumab (antibody, chains of the INN, looked up)
heavy: QVQLVQSGAEVKKPGASVKVSCKASGYIFSNYWIQWVRQAPGQGLEWMGEILPGSGSTEYTENFKDRVTMTRDTSTSTVYMELSSLRSEDTAVYYCARYFFGSSPNWYFDVWGQGTLVTVSSASTKGPSVFPLAPCSRSTSESTAALGCLVKDYFPEPVTVSWNSGALTSGVHTFPAVLQSSGLYSLSSVVTVPSSNFGTQTYTCNVDHKPSNTKVDKTVERKCCVECPPCPAPPVAGPSVFLFPPKPKDTLMISRTPEVTCVVVDVSQEDPEVQFNWYVDGVEVHNAKTKPREEQFNSTYRVVSVLTVLHQDWLNGKEYKCKVSNKGLPSSIEKTISKAKGQPREPQVYTLPPSQEEMTKNQVSLTCLVKGFYPSDIAVEWESNGQPENNYKTTPPVLDSDGSFFLYSRLTVDKSRWQEGNVFSCSVMHEALHNHYTQKSLSLSLG
light: DIQMTQSPSSLSASVGDRVTITCGASENIYGALNWYQQKPGKAPKLLIYGATNLADGVPSRFSGSGSGTDFTLTISSLQPEDFATYYCQNVLNTPLTFGQGTKVEIKRTVAAPSVFIFPPSDEQLKSGTASVVCLLNNFYPREAKVQWKVDNALQSGNSQESVTEQDSKDSTYSLSSTLTLSKADYEKHKVYACEVTHQGLSSPVTKSFNRGEC
notes: anti-C5 antibody (Alexion pharmaceuticals)
Q: What does the source list for B1?
A: C5b-9 deposition induced by S1 and S2 [1]: inhibited; also recorded: blocks; S1-induced C5b-9 deposition [1]: blocking; also recorded: prevented; S2-induced C5b-9 deposition [1]: blocking; cell killing in the mHam assay induced by S1 and S2 [2]: inhibited; also recorded: blocks; C3c deposition induced by S1 and S2 [3]: does not block; S1-induced C3c deposition [3]: but not eculizumab; also recorded: but not C3c accumulation; S2-induced C3c deposition [3]: but not eculizumab
